{"sequences": {"note": "The chains behind the UniProt entries cited, without tags or fusion partners. Residues count along the entry.", "UniProt O77240, 1-513": "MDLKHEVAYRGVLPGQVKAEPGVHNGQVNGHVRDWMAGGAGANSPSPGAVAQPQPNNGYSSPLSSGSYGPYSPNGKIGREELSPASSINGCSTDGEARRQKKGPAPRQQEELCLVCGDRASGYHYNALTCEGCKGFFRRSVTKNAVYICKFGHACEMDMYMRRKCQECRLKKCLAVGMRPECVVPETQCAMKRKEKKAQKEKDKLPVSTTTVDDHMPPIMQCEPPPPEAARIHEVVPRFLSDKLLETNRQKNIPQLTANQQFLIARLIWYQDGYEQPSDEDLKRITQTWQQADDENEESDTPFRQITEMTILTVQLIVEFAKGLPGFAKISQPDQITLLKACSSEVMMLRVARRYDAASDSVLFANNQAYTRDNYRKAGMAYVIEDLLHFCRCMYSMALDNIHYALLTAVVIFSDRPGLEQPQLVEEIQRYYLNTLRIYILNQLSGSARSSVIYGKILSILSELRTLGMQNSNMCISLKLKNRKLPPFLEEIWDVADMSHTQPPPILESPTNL"}, "source": "patent US9127024B2", "about": "(Intrexon Corporation, priority 2013, dated 2015)", "biological_target": "RheoSwitch® (CHO-K1_RS-1 cells, firefly Luciferase reporter) (Choristoneura fumiferana, UniProt O77240)", "test": "in vitro gene switch assay (fLUC Luciferase expression, potency screen)", "format": "cell-based", "conditions": "24 hours with compound, 25 μM to 2.5 pM, figure in parentheses after a value not defined", "description": "Representative Compounds of the Disclosure were tested for biological activity in an in vitro gene switch assay (Tables 1 and 1A). Gene switch assays are disclosed, e.g., in U.S. Pat. Nos. 8,076,517; 7,456,315; 7,304,161; and 6,258,603.\nCHO-K1 cells were stably transfected with a plasmid (RS-1, FIG. 1) coding for firefly Luciferase (fLUC) under the control of the RheoSwitch® resulting in the stable cell line CHO-K1_RS-1. A master cell bank was created containing approximately 100 vials at 5×10^6 cells per vial. One vial of CHO-K1_RS-1 was thawed and cultured for two weeks prior to each in vitro potency screening.\nTwenty-four (24) hours prior to treatment with the control and test compounds the CHO-K1_RS-1 cells were seeded into white-opaque 384-well cell culture plates at 3,600 cells per well in 30 μl of culture medium. The cells were incubated in a humidified CO2 incubator at 37° C. until compound treatment.\nCompounds were prepared at 25 mM in 100% dry DMSO and stored at room temperature in sealed 1 ml tubes prior to subsequent dilution and assay. […]\nThe cells were incubated with the compound for 24 hours in a humidified CO2 incubator at 37° C. […] The reagent was incubated with the cells for 10-120 minutes prior to reading on a Molecular Devices Spectramax L luminometer. […]"}
{"substance": "(R)—N-(3,5-dimethylbenzoyl)-N-(2,2-dimethylpentan-3-yl)-1-hydroxy-6-methyl-3,4-dihydro-1H-benzo[c][1,5,2]dioxaborepine-7-carbohydrazide [Cpd. No. 79]", "values": [{"measurement": "EC50", "result": 0.407, "unit": "µM"}]}
